Binding of CDR-mutated scFvs to a peptide of the spike HR2 region

Values reported by Li et al. 2023, doi:10.1038/s41467-023-39022-2 (FLAb copy).

All variants were tested on one target, the spike HR2 peptide PDVDLGDISGINAS (SARS-CoV-2).

The variants keep the heavy chain, the linker and the frameworks of Ab-14 (scFv order VH, the linker GGGGSGGGGSGGGGS, VL).
VH: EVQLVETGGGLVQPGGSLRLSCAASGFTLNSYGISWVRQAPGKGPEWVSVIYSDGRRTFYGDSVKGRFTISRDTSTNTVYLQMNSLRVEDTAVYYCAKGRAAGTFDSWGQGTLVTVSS
VL: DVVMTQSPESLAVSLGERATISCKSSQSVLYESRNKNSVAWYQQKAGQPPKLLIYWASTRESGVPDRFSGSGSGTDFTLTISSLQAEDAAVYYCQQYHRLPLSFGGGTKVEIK

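This is the validation round: designs drawn from the data on random variants, tested in the same kind of assay. Their group label is 14L_GP_HC (GP: Gaussian process model; HC: hill climbing; a sequence that several methods proposed may carry one label only). The assay is AlphaSeq: two haploid yeast populations carry antibody and antigen on their surface. Binding brings cells together so that they mate, and sequencing counts the barcode pairs among the diploids. A regression on co-assayed BCL2-family reference pairs converts the normalised counts of each replicate to an apparent Kd. Each pool was mated in six replicate cultures.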

Each variant is given by its three light chain CDRs, as the data file delimits them; those of the parent are KSSQSVLYESRNKNSVA, WASTRES, QQYHRLPLS. The read-out is the apparent dissociation constant on a log10 scale (nM): the lower, the stronger. Replicates are averaged; those with no signal do not enter the mean. Where no diploid with the target was found in that replicate, the entry reads "nd": below detection, most likely a poor binder, though not proof of it.

CDR-L1,CDR-L2,CDR-L3,"log10 Kd, replicates","mean, log10 nM",control signals
KSSWSVLYESNNKNSVA,GASTRED,QQYHRLPLS,0.58 / 0.41 / 0.29 / 0.32 / 0.44 / 0.61,0.44,3/18 (2.30)
KSSISELGEKRNKNSVA,EASTRES,QQYHRLPLS,1.23 / 1.58 / 0.98 / 0.96 / 0.91 / 1.26,1.15,0/18
KFSQWVLYETRTKNSVA,NASTRES,QQYHRLPLS,0.26 / 0.23 / -0.03 / 0.38 / 0.27 / 0.43,0.26,0/18
HSSPSVPYESRNKNSVA,NASTREE,QDYHRLPLS,0.25 / 0.14 / 0.00 / 0.30 / 0.19 / 0.64,0.25,1/18 (3.07)
KVSISVLLESRNKNSVA,EASTRES,QQYHRLPLS,0.23 / 0.32 / 0.32 / 0.06 / 0.04 / 0.67,0.27,0/18
KLSISYLGESRNKNSVA,EASTRES,QQYHRLPLS,-0.09 / 0.56 / 0.08 / -0.03 / -0.09 / 0.20,0.10,1/18 (2.05)
KLSQSFLYESRNVNSVA,GASTRDS,QQYHRLPLS,0.46 / 0.04 / 0.26 / 0.15 / 0.11 / 0.20,0.20,1/18 (2.82)
KSSQSDLYESRNKNSVA,GASTRES,QAYHRLPLS,0.80 / 0.40 / 0.64 / 0.40 / 0.28 / 0.53,0.51,3/18 (3.57)
KLSQSTLYDSQNKNSVA,WASTRES,QQYKRLPLS,0.48 / 0.77 / 0.76 / 0.51 / 0.39 / 0.84,0.62,3/18 (3.20)
KLHQSTLYESRNKNSVA,AASTRES,QQYHRLPLS,0.57 / 0.08 / 0.09 / -0.02 / 0.23 / 0.21,0.19,2/18 (2.22)
KFSQSVLYESRNKNSVA,NASTRES,QQYHQLPLS,0.08 / 0.13 / 0.16 / -0.06 / -0.10 / -0.03,0.03,1/18 (2.13)
NSSQSWLYESRNKNSVA,QGNHRES,QQYHRLPLS,0.39 / 0.45 / 0.46 / 0.55 / 0.44 / 0.61,0.48,0/18
KFSQSWLYESRNFWSVA,GASHRES,QQYHRLPLS,0.17 / 0.87 / 0.14 / 0.11 / 0.01 / 0.37,0.28,1/18 (1.15)
KSQISFLYESRNKNSVA,EASTRES,QQYHRLPLS,0.05 / -0.29 / -0.20 / -0.37 / -0.39 / -0.25,-0.24,0/18
KSSQSVLNESRNFNSVA,DASTRES,QQYHRLPLS,0.45 / 0.53 / 0.26 / 0.31 / 0.33 / 0.68,0.43,3/18 (3.01)
KSLQSQLYESRNKNSVA,HASTRED,QQYHQLPLS,0.22 / 0.11 / 0.16 / 0.16 / 0.21 / 0.34,0.20,0/18
KSSISYLSESRNFNSVA,EASTREQ,QQYHRLPLS,0.09 / 0.19 / -0.10 / -0.06 / 0.17 / 0.27,0.09,1/18 (2.78)
KVLQSVVYESRNKNSVA,HASTRED,QQYHRLPLS,0.44 / 0.49 / 0.61 / 0.22 / 0.53 / 0.47,0.46,1/18 (2.31)
HSSESVLYESRNGNSVA,NASTREK,QQYHRLPLS,1.16 / -0.62 / 0.02 / -0.20 / 0.11 / 0.10,0.09,0/18
KSGQGVLYESRNKNSVA,GASQRCS,QQYHRLPLS,0.16 / 0.31 / 0.35 / 0.04 / 0.37 / 0.42,0.27,1/18 (2.64)
KQSQSSLCESRNKNSVA,DASTRES,QQYHRLPLS,0.16 / 0.13 / 0.22 / 0.11 / 0.30 / 0.21,0.19,4/18 (2.49)
KISQSVLMESRNCNSVA,DASTRES,QQYHRLPLS,0.14 / 0.15 / -0.16 / -0.34 / -0.36 / 0.28,-0.05,0/18
KVSNSYLLESRNKNSVA,EASTRES,QQYHRLPLS,0.05 / 0.22 / 0.15 / 0.02 / -0.07 / 0.23,0.10,1/18 (2.20)
KLRQSTLYESRNQNSVA,NASTRES,QQYHRLPLS,0.47 / 0.19 / 0.16 / -0.03 / 0.05 / 0.18,0.17,0/18
KLRQQTLYETRNKNSVA,NASTREE,QQYHRLPLS,-0.30 / -0.29 / -0.19 / -0.37 / -0.56 / -0.40,-0.35,1/18 (2.78)
HLSDSVLYESRNQNSVA,NASTRES,QQYHRLPLN,1.19 / 1.95 / 0.92 / 1.77 / nd / 2.04,1.57,0/18
KLDNSTNYESRQKNSVA,WASTRES,QQYHRLPLS,0.99 / 0.76 / 0.81 / 1.03 / 0.77 / 0.93,0.88,3/18 (3.15)
KQSQSVLYESRNKNAVA,MASTRES,QQYHRLPLS,nd / 1.58 / 1.91 / 0.62 / 1.04 / 2.17,1.46,0/18
KYSQSWLYESRNKNSVA,GASSRES,QQYHRLPLS,0.14 / -0.08 / -0.19 / -0.11 / -0.13 / 0.13,-0.04,0/18
KSSQSVLGEQRNKNSVA,EASTRES,QQYHRLPLS,0.64 / 0.55 / 1.63 / 0.81 / 1.07 / 1.85,1.09,0/18
KLRQSTNYESRNQNSVA,WASTRES,QQYHRLPLS,1.03 / 0.59 / 0.83 / 1.03 / 0.66 / 1.12,0.88,2/18 (3.04)
QSSQSFLYESRNKNSVA,AASTRES,QQYHRLPLS,0.23 / 0.13 / 0.25 / -0.09 / -0.08 / 0.06,0.08,1/18 (2.71)
KSLQLVLYESRNKNSVA,HASTRED,QQYHRLPLS,0.92 / 1.47 / 1.41 / 0.74 / 0.82 / 0.67,1.01,0/18
KSLQSWLYESRNKNSVA,EASTREQ,QQYHRLPLS,-0.19 / -0.20 / -0.12 / -0.46 / -0.38 / -0.10,-0.24,0/18
HSSPSVAYESRNKNSVA,NASTREQ,QQYHRLPLS,-0.01 / -0.08 / -0.19 / -0.15 / -0.34 / -0.06,-0.14,0/18
KVSQSVLYEWRNKNSVA,DASTREV,QQYHRLPLS,0.22 / -0.15 / -0.15 / -0.28 / 0.02 / -0.08,-0.07,0/18
KSSQSVLYESRNKNSVA,DASFRES,QQYHRLPLS,0.07 / 0.21 / 0.02 / -0.08 / -0.13 / 0.18,0.04,2/18 (2.74)
KQSQSVLYESLNKNSVA,DASTRES,QQYHRLPLS,0.28 / 0.25 / 0.30 / 0.08 / 0.13 / 0.16,0.20,0/18
KSYGSFLYESRNKNSVA,EASTRES,QQYHRLPLS,0.29 / 0.35 / 0.20 / 0.18 / 0.16 / 0.37,0.26,0/18
KVYPSDLYESRNKNSVA,QASTRES,QQYHRLPLS,-0.13 / -0.17 / -0.26 / -0.44 / -0.33 / -0.14,-0.25,2/18 (3.03)
KASQSVLYESHNKNSVA,NASTRMS,QQYHRLPLS,0.96 / 0.86 / 0.59 / 0.83 / 0.67 / 0.90,0.80,5/18 (2.51)
KSSLSFLYESRNKNSVA,EASTRES,QQYHRLPLS,0.59 / 0.74 / 0.90 / 0.91 / 0.61 / 0.61,0.73,1/18 (2.20)
KSETGVLYESRNKNSVA,GASTRES,QQYHRLPLS,0.18 / -0.18 / -0.58 / -0.27 / -0.13 / -0.26,-0.21,0/18
KSSQSVWMESRNKNSVA,DASTRES,QQYHRLPLS,0.53 / 0.27 / 0.45 / 0.15 / -0.13 / 0.23,0.25,1/18 (2.22)
KSSQSWLYESLNKNSVA,GASTREN,QQYHRLPLS,0.12 / 0.09 / 0.01 / 0.15 / 0.03 / 0.05,0.07,1/18 (4.27)
KLSDSVLLESRTKNSVA,NASTRES,QQYHRLPLS,0.51 / 0.37 / 0.51 / -0.34 / 0.06 / 0.18,0.21,0/18
KSLQSQDYESRNKNSVA,HASTRED,QQYHCLPLS,0.86 / 1.01 / 1.16 / 0.81 / 1.02 / 1.09,0.99,1/18 (3.75)
KSMQGVLYESRNKNSVA,GASQRES,QQYHRLPLS,0.35 / 0.19 / 0.00 / -0.07 / 0.21 / 0.27,0.16,1/18 (1.84)

The last 6 entries again:

CDR-L1,CDR-L2,CDR-L3,"log10 Kd, replicates","mean, log10 nM",control signals
KSETGVLYESRNKNSVA,GASTRES,QQYHRLPLS,0.18 / -0.18 / -0.58 / -0.27 / -0.13 / -0.26,-0.21,0/18
KSSQSVWMESRNKNSVA,DASTRES,QQYHRLPLS,0.53 / 0.27 / 0.45 / 0.15 / -0.13 / 0.23,0.25,1/18 (2.22)
KSSQSWLYESLNKNSVA,GASTREN,QQYHRLPLS,0.12 / 0.09 / 0.01 / 0.15 / 0.03 / 0.05,0.07,1/18 (4.27)
KLSDSVLLESRTKNSVA,NASTRES,QQYHRLPLS,0.51 / 0.37 / 0.51 / -0.34 / 0.06 / 0.18,0.21,0/18
KSLQSQDYESRNKNSVA,HASTRED,QQYHCLPLS,0.86 / 1.01 / 1.16 / 0.81 / 1.02 / 1.09,0.99,1/18 (3.75)
KSMQGVLYESRNKNSVA,GASQRES,QQYHRLPLS,0.35 / 0.19 / 0.00 / -0.07 / 0.21 / 0.27,0.16,1/18 (1.84)

Of ten entries with the parent sequence, four were seen in most replicates (averages 0.34 to 2.37), three in one and three in none, so single entries are noisy. As a blank, each scFv also met three strains without target: over all light chain designs, 4% of these pairings were detected, typically at 2.64 and seldom below 1.59. Also given: how often the same scFv was detected with the empty control strains, with their mean in brackets. A sequence measured in both rounds can read differently, since the two assays cover different ranges. In the paper, a design with two or fewer of six values counts as a poor binder.